# Source: publication PMC4366854, “Molecular origins of synaptotagmin 1 activities on vesicle docking and fusion pore opening” (Scientific Reports, 2015)
# By UniProt entry, the sequences of proteins in these tests, tags left out. Chains listed by the source or under a name are the forms on record and can include a tag or linker. Residues count along the entry.
# UniProt P63045, 1-96, chain 1 of 3: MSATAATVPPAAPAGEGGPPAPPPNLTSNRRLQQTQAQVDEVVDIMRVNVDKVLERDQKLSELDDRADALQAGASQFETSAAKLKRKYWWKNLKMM
# ternary SNARE complex of GST-tagged soluble VAMP2 (1-96), syntaxin 1A (191-266) and His-tagged SNAP-25, UniProt P32851, 191-266, chain 2 of 3: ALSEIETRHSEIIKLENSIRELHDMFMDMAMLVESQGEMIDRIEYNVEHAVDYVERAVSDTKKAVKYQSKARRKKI
# ternary SNARE complex of GST-tagged soluble VAMP2 (1-96), syntaxin 1A (191-266) and His-tagged SNAP-25, UniProt P60881, whole entry C85A/C88A/C90A/C92A, chain 3 of 3: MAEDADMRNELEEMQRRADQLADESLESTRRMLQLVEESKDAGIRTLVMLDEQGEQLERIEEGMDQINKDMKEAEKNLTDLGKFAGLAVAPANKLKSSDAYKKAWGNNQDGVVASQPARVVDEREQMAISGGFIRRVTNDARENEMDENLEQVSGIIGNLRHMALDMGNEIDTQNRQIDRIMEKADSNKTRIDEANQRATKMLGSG
# Changes are numbered by the printed parent chain. In names and notes the source's numbering stands.
# B1: wild-type Syt1 (recombinant synaptotagmin 1, amino acids 50-421, C74A/C75A/C77A/C79A/C82S) (domain or fragment, UniProt P21707 50-421, looked up)
# chain: LHKIPLPPWALIAIAIVAVLLVVTAAFAVAKKSLFKKKNKKKGKEKGGKNAINMKDVKDLGKTMKDQALKDDDAETGLTDGEEKEEPKEEEKLGKLQYSLDYDFQNNQLLVGIIQAAELPALDMGGTSDPYVKVFLLPDKKKKFETKVHRKTLNPVFNEQFTFKVPYSELGGKTLVMAVYDFDRFSKHDIIGEFKVPMNTVDFGHVTEEWRDLQSAEKEEQEKLGDICFSLRYVPTAGKLTVVILEAKNLKKMDVGGLSDPYVKIHLMQNGKRLKKKKTTIKKNTLNPYYNESFSFEVPFEQIQKVQVVVTVLDYDKIGKNDAIGKVFVGYNSTGAELRHWSDMLANPRRPIAQWHTLQVEEEVDAMLAVKK
# notes: synaptotagmin 1 (Syt1), amino acids 50-421; source: E. coli BL21 (DE3), purified
# B2: Syt1 2A(A) (M173A/F234A) (domain or fragment, UniProt P21707 50-421, looked up)
# chain: B1 chain with M124A, F185A
# notes: synaptotagmin 1 (Syt1), amino acids 50-421; loop region mutant of m1; source: E. coli BL21 (DE3), purified
# B3: Syt1 2A(B) (V304A/I367A) (domain or fragment, UniProt P21707 50-421, looked up)
# chain: B1 chain with V255A, I318A
# notes: as for B2
# B4: Syt1 2W(A) (M173W/F234W) (domain or fragment, UniProt P21707 50-421, looked up)
# chain: B1 chain with M124W, F185W
# notes: as for B2
# B5: Syt1 2W(B) (V304W/I367W) (domain or fragment, UniProt P21707 50-421, looked up)
# chain: B1 chain with V255W, I318W
# notes: as for B2
# B6: Syt1 4A (M173A/F234A/V304A/I367A) (domain or fragment, UniProt P21707 50-421, looked up)
# chain: B1 chain with M124A, F185A, V255A, I318A
# notes: as for B2
# B7: Syt1 4W (M173W/F234W/V304W/I367W) (domain or fragment, UniProt P21707 50-421, looked up)
# chain: B1 chain with M124W, F185W, V255W, I318W
# notes: as for B2
# B8: Syt1 QQQ (Lys326, Lys327, Lys331 to Gln) (domain or fragment, UniProt P21707 50-421, looked up)
# chain: B1 chain with K277Q, K278Q, K282Q
# notes: synaptotagmin 1 (Syt1), amino acids 50-421; polybasic region mutant of m1; The methods print L326/327/331Q; also called Syt1 QQQ (L326/327/331Q); source: E. coli BL21 (DE3), purified
# B9: Syt1 Y311N (domain or fragment, UniProt P21707 50-421, looked up)
# chain: B1 chain with Y262N
# notes: synaptotagmin 1 (Syt1), amino acids 50-421; mutant of m1; source: E. coli BL21 (DE3), purified
# B10: Syt1-C2A* (D230A/D232A) (domain or fragment, UniProt P21707 50-421, looked up)
# chain: B1 chain with D181A, D183A
# notes: as for B1
# B11: Syt1-C2A*B* (D230A/D232A/D363A/D365A) (domain or fragment, UniProt P21707 50-421, looked up)
# chain: B1 chain with D181A, D183A, D314A, D316A
# notes: as for B1
# B12: Syt1-C2B* (D363A/D365A) (domain or fragment, UniProt P21707 50-421, looked up)
# chain: B1 chain with D314A, D316A
# notes: as for B1
# Molecular target: ternary SNARE complex of GST-tagged soluble VAMP2 (1-96), syntaxin 1A (191-266) and His-tagged SNAP-25 (rat, UniProt P63045 1-96; P32851 191-266; P60881 1-206, C85A | C88A | C90A | C92A)
# Assay: pull-down; GST pull-down: ternary SNARE complex (GST-VAMP2 1-96 / syntaxin 1A 191-266 / His-SNAP-25) held on glutathione-agarose beads; wild-type Syt1 or mutants added in cleavage buffer (50 mM Tris-HCl pH 8.0, 150 mM NaCl, 0.8% OG) with 500 uM Ca2+, 4 °C, 1 h; SDS-PAGE, Coomassie blue; wild type also tested with BSA, 200 uM IP3 or without Ca2+
# Conditions: both partners purified
row,Binder,binding result
1,B1,binds
2,B2,binds
3,B3,binds
4,B4,binds
5,B5,binds
6,B6,binds
7,B7,binds
8,B8,binds
9,B9,binds
10,B10,binds
11,B11,binds
12,B12,binds
